Key:
human islets [1] = assay: Western blot of PUMA and phospho-p65 in cultured human islets; format: cell-based
Protocol: FIG. 2A) 500 islet equivalents (IEQs) were cultured with or without TNF-α (5 and 50 ng/ml) and/or IFNγ (1000 U/ml) for 24 hours. Cell lysate was used for western blot to examine the PUMA expression in islets (*p<0.05, **p<0.005, n=3). […] (p=NS, n=3). FIG. 2C) Islets pre-incubated with NFκB inhibitor, BAY 11-7082, for 1 hour prior to TNF-α (50 ng/ml) or in combination with IFNγ (1000 U/ml) stimulation were examined by western blot to determine PUMA expression (n=3). FIG. 2D) Islets pre-incubated with NFκB inhibitor, BAY 11-7082, for 1 hour prior to TNF-α (50 ng/ml) stimulation were examined by western blot to determine PUMA expression (n=3). All data are presented as a mean±standard error. […] The up-regulation of PUMA by TNF-α was enhanced by the addition of IFNγ.
Five hundred IEQ samples were harvested before and 24 hours after culture with or without TNF-α and/or IFNγ, washed twice with ice cold phosphate buffered saline (PBS), and stored at −80° C. until use. In some experiments, islets were pre-incubated with 10 μM NFκB inhibitor; BAY11-7082 for 1 hour before cytokine stimulation. Islet cell lysis and western blot was performed as previously described (49).
Translation of PUMA induced by TNF-α alone or in combination with IFN-γ into PUMA protein was examined. Islets were stimulated in culture for 16 hours with TNF-α alone or together with IFN-γ, lysed and analyzed by western blot. […]

human islets [2] = assay: Cytokine stimulation of single human islets, mRNA quantification; format: cell-based
Protocol: FIGS. 8A-L. TNF-α induces PUMA expression in human islets and acinar cells. FIG. 8A) TNF-α induced Bcl-2 family mRNA in islets. Single islets were stimulated with or without 50 ng/ml TNF-α for 16 hours. Each dot indicates the result of one islet lot tested in hextuplicate. The tests were performed using 4 different human islet lots. Bars indicate the mean of 4 lots. Each gene expression was normalized by ACTB (a gene encoding β actin), and the fold increase was calculated by dividing TNF-α treated islets by control islets (*p<0.01, n=4). […] FIGS. 8B-D) PUMA (FIG. 8B), IL-8 (FIG. 8C) and TNF-α (FIG. 8D) expression from single human islets (n=6) stimulated with 0 (open circles), 1 (solid triangles), 5 (solid squares) and 50 ng/ml (solid circles) TNF-α for 0, 1, 4, 16 hours in 3 independent cases. Dose dependent expression of (FIG. 8E) PUMA, (FIG. 8F) IL-8 and (FIG. 8G) TNF-α in human islet at the 4 hour time point (n=3). The PUMA expression in human islets was elevated by TNF-α as early as one hour, increased during the next 4 hours, and maintained at the similar level for 16 hours. […] (FIG. 8H) PUMA, (FIG. 8I) IL-8 and (FIG. 8J) TNF-α mRNA expression in acinar cells, in triplicate, stimulated with 0 (open circles), 1 (solid triangles), 5 (solid squares) and 50 (solid circles) ng/ml TNF-α for 0, 1, 4, 16 hours. Representative data from two independent cases is shown. (FIG. 8K) PUMA and (FIG. 8L) IL-8 expression in human islets stimulated with or without TNF-α (1, 5, 50 ng/ml) and/or IFNγ (10, 100, 1000 U/ml) for 4 hours. When combined with TNF-α, IFNγ strongly augmented TNF-α mediated PUMA expression. PUMA expression is highest for TNF-α at 50 ng/ml+IFNγ at 1000 U/ml. […] All data are presented as a mean±standard error. […] However, unlike in the islets, the expression of PUMA and IL-8 reached to the peak level by 4 hours and decreased to the basal level by 16 hours.
Human islets and acinar cells isolated for research use were obtained from the Southern California Islet Cell Resources (SC-ICR) Center, Beckman Research Institute of the City of Hope (Duarte, Calif.) 1 to 3 days after isolation. The donor age ranged from 18 to 67 (48±14) years and included both sexes. Islet preparations with >70% purity and >90% viability were used. The use of human islets and acinar cells in this study was approved by the Institutional Review Board of the City of Hope. For mRNA experiments, islets between 150 μm to 300 μm in diameter (medium size islet) were handpicked in hexuplicate by experienced personnel under a dissection microscope without staining. […]

TNF-α: recombinant human (or rat, for INS-1) TNF-α, R&D Systems; cytokine stimulus
PUMA protein expression (western blot) (human islets [1]; TNF-α 50 ng/mL and/or IFN-γ 1000 U/mL, FIG. 2A): significantly increased | phosphorylation of p65 protein (Ser536) (human islets [1]; cytokine stimulated islets, FIG. 2B): Increased phosphorylation | increases in other Bcl-2 family mRNAs (human islets [2]; 50 ng/mL, 16 hours, n=4, FIG. 8A): less than 2 fold | PUMA mRNA fold increase vs non-stimulated controls (human islets [2]; 50 ng/mL, 16 hours, n=4 islet lots, FIG. 8A): 1.9-4.7 fold | IL-8 mRNA expression in human islets (human islets [2]; TNF-α 1, 5, 50 ng/ml and/or IFNγ 10, 100, 1000 U/ml, FIG. 8C, 8F, 8L): increased | endogenous TNF mRNA expression in human islets (human islets [2]; TNF-α 1, 5, 50 ng/ml up to 16 hours, FIG. 8D, 8G): induce TNF mRNA expression

Source: patent publication US20180030537A1, “PUMA, A PRO-APOPTOTIC GENE, AS A NOVEL MOLECULAR BIOMARKER FOR TNFALPHA-INDUCED HUMAN ISLET DAMAGE” (CITY OF HOPE, priority 2010, published 2018)
